We go through one compound from patent publication US8618169B2, “Derivatives of N-phenylanthranilic acid and 2-benzimidazolone as potassium channel and/or neuron activity modulators” (Ramot at Tel-Aviv University Ltd., priority 2002, dated 2013).

The assay addresses T1, KCNQ2/3 channels (Homo sapiens, UniProt O43525+O43526).
T1 construct: expressed in transfected cells; host or cells: CHO cells
Description: KCNQ2/3 current in transfected CHO cells, whole-cell patch-clamp. Type of assay: cell-based.

For the compound `O=C(O)Cc1ccccc1Nc1c(Cl)cccc1Cl` [Compound 2, diclofenac], the “V50 of KCNQ2/3 activation with compound” value (50 μM, CHO cells, control −30.9±4.1 mV) is listed as −45.4±2.7 mV. The “increase of the current amplitude” value (50 μM, train protocol, stepped from −85 mV to −50 mV) is given as “up to 262±26%”. Also, the “effect on deactivation kinetics of KCNQ2/3 channels” value (CHO cells) is recorded as “slowed down”.
